Values of other authors as cited in US12527876B2, “Insulin-like growth factor-chemotherapeutic conjugate for treating myelodysplastic syndrome” (IGF Oncology, LLC, priority 2017, dated 2026).

Tested on: soluble IGF binding proteins
Conditions: compared to wild-type IGF-1; Francis 1992, Tomas 1993, U.S. Pat. No. 4,876,242; cited from earlier work

Substance: R3-IGF: human IGF-1 with arginine replacing glutamic acid at position 3, SEQ ID NO: 6 [reference compound]
- binding affinity to the soluble IGF binding proteins: reduced binding affinity
